Experimental data taken from PMC9926490, “Structural Basis for Cyclosporin Isoform-Specific Inhibition of Cyclophilins from Toxoplasma gondii” (ACS Infectious Diseases, 2023).

Protein sequences, listed by entry. Tags and fused reporters are not part of them.
UniProt P62937, whole entry: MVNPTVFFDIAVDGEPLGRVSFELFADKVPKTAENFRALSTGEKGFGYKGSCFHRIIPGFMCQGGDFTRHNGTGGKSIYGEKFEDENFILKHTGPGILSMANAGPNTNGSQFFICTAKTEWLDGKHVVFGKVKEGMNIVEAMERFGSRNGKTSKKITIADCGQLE

Biological target: cyclosporin A (CsA)
Test: ITC; CsA at 8-20 uM in the cell titrated with 66-400 uM Cyp, 20 °C, 50 mM Hepes pH 8.0, 100 mM NaCl, 0.4% ethanol; one set of sites; apparent Kd; N set to 1 for TgCyp18.4

- dH: -10700 kJ mol^–1
Substance: human cyclophilin A (CypA) (from UniProt P62937 1-165) (enzyme)
